Values joined by “and” are separate entries in the source; they are usually repeats but may differ in a detail not shown here. Equal entries are not always repeated.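 Growth conditions: 96-well plates. Treatment: test compound, 48 hours, 5 concentrations. Analysis: linear interpolation between bracketing concentrations; unreached endpoints set to highest concentration. GI50 marks 50% less growth. Definition used: TGI = concentration required for complete inhibition of growth.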
Assays:
Experiment in all cases: NCI tumour cell line growth inhibition, 48 h; in the data active = GI50 below about 0.43 µM; inactive = the rest
[1] = tested on: A549 NSCLC
[2] = tested on: SN12C renal
[3] = tested on: CAKI-1 renal
[4] = tested on: IGROV1 ovarian
[5] = tested on: SW-620 colon
[6] = tested on: MDA-MB-435
[7] = tested on: OVCAR-5 ovarian
[8] = tested on: P388/ADR leukemia
[9] = tested on: NCI-H226 lung
[10] = tested on: SR leukemia
[11] = tested on: M14 melanoma
[12] = tested on: HCC-2998 colon
[13] = tested on: NCI-H522 lung
[14] = tested on: HOP-62 NSCLC
[15] = tested on: HS 578T breast
[16] = tested on: MDA-N
[17] = tested on: U251 CNS
[18] = tested on: UACC-62 melanoma
[19] = tested on: BT-549 breast
[20] = tested on: NCI-H460 lung
[21] = tested on: NCI-H23 lung
[22] = tested on: OVCAR-3 ovarian
[23] = tested on: NCI/ADR-RES ovarian
[24] = tested on: SNB-75 CNS
[25] = tested on: HOP-92 NSCLC
[26] = tested on: HOP-18 NSCLC
[27] = tested on: HCT-116 colon
[28] = tested on: ACHN renal
[29] = tested on: SK-OV-3 ovarian
[30] = tested on: MALME-3M melanoma
[31] = tested on: SF-539 CNS
[32] = tested on: XF 498 CNS
[33] = tested on: KM20L2 colon
[34] = tested on: SNB-19 CNS
[35] = tested on: SK-MEL-5 melanoma
[36] = tested on: CCRF-CEM leukemia
[37] = tested on: DMS 273 small cell lung
[38] = tested on: A498 renal
[39] = tested on: M19-MEL melanoma
[40] = tested on: K-562 leukemia
[41] = tested on: SN12K1 renal
[42] = tested on: HL-60(TB) leukemia
[43] = tested on: SNB-78 CNS
[44] = tested on: MOLT-4 leukemia
[45] = tested on: KM12 colon
[46] = tested on: UACC-257 melanoma
[47] = tested on: DLD-1 colon
[48] = tested on: DU-145 prostate
[49] = tested on: PC-3 prostate
[50] = tested on: SF-295 CNS
[51] = tested on: MCF7 breast
[52] = tested on: OVCAR-8 ovarian
[53] = tested on: OVCAR-4 ovarian
[54] = tested on: TK-10 renal
[55] = tested on: UO-31 renal
[56] = tested on: SK-MEL-2 melanoma
[57] = tested on: SK-MEL-28 melanoma
[58] = tested on: P388 leukemia
[59] = tested on: LOX IMVI melanoma
[60] = tested on: HCT-15 colon
[61] = tested on: SF-268 CNS
[62] = tested on: EKVX NSCLC
[63] = tested on: RXF 393 renal
[64] = tested on: HT29 colon
[65] = tested on: NCI-H322M lung
[66] = tested on: COLO 205 colon
[67] = tested on: RPMI-8226 leukemia
[68] = tested on: DMS 114 small cell lung
[69] = tested on: 786-0 renal
[70] = tested on: MDA-MB-231 breast
[71] = tested on: T-47D breast

CC1=C[C@H]2O[C@@H]3C[C@H]4OC(=O)/C=C\C=C\[C@H]([C@@H](C)O)OC[C@H](O)[C@@]5(C)O[C@@H]5C(=O)OC[C@@]2(C[C@H]1O)[C@]4(C)C31CO1 (stereo not given in full)
204 nM and 113 nM: TGI [22]
36.1 nM: TGI [42]
64.2 nM: TGI [41]
225 nM and 359 nM: TGI [25]
51.6 nM: TGI [58]
2400 nM and 1470 nM: TGI [55]
1620 nM and 1280 nM: TGI [2]
28.4 nM: TGI [13]
3140 nM: TGI [28]
82.3 nM and 266 nM: TGI [34]
620 nM: TGI [49]
90.9 nM: TGI [12]
315 nM and 381 nM: TGI [61]
854 nM and 523 nM: TGI [29]
100 nM: TGI [16]
138 nM: TGI [6]
733 nM: TGI [64]
465 nM and 278 nM: TGI [50]
49.5 nM and 84.6 nM: TGI [57]
60.4 nM: TGI [53]
977 nM: TGI [54]
53.9 nM: TGI [11]
366 nM and 226 nM: TGI [46]
22 nM and 53.6 nM: TGI [67]
114 nM: TGI [18]
61.1 nM: TGI [30]
16.7 nM and 88.6 nM: TGI [63]
42.5 nM and 42.4 nM: TGI [35]
583 nM and 325 nM: TGI [38]
1280 nM: TGI [26]
96.3 nM: TGI [66]
2470 nM: TGI [65]
88.2 nM: TGI [51]
616 nM: TGI [43]
173 nM and 176 nM: TGI [20]
2490 nM: TGI [8]
161 nM and 176 nM: TGI [27]
62.5 nM and 86.7 nM: TGI [31]
793 nM: TGI [48]
985 nM and 2150 nM: TGI [7]
46.9 nM and 75.2 nM: TGI [9]
80.9 nM: TGI [37]
585 nM and 272 nM: TGI [44]
14700 nM: TGI [23]
249 nM: TGI [3]
46.7 nM: TGI [15]
73.6 nM: TGI [56]
353 nM: TGI [19]
502 nM and 326 nM: GI50 [55]
215 nM and 237 nM: TGI [21]
2420 nM and 1940 nM: TGI [60]
85 nM and 99.3 nM: TGI [24]
56.8 nM: TGI [39]
165 nM: TGI [47]
65.8 nM: TGI [32]
97.6 nM: TGI [4]
1390 nM and 241 nM: TGI [52]
210 nM: TGI [10]
active: GI50 [1] 387 nM and 398 nM | GI50 [2] 215 nM and 158 nM | GI50 [3] 69 nM | GI50 [4] 31.5 nM | GI50 [5] 82.6 nM and 65 nM | GI50 [6] 32.7 nM | GI50 [7] 316 nM | GI50 [9] 16 nM and 32.5 nM | GI50 [10] 15.8 nM | GI50 [11] 15.2 nM | GI50 [12] 35.6 nM | GI50 [13] < 10 nM and 19.4 nM | GI50 [14] 50.7 nM | GI50 [15] 16.6 nM | GI50 [16] 29.8 nM | GI50 [17] 29 nM and 46.3 nM | GI50 [18] 45.3 nM | GI50 [19] 36.9 nM | GI50 [20] 34.8 nM and 56.2 nM | GI50 [21] 38.4 nM and 64.8 nM | GI50 [22] 31.4 nM and 36.9 nM | GI50 [24] 25.4 nM and 39.5 nM | GI50 [25] 30 nM and 48.8 nM | GI50 [26] 348 nM | GI50 [27] 28.8 nM and 43.9 nM | GI50 [28] 338 nM | GI50 [29] 178 nM and 85 nM | GI50 [30] 28.6 nM | GI50 [31] 22.5 nM and 32.5 nM | GI50 [32] 30.9 nM | GI50 [33] 104 nM | GI50 [34] 21.4 nM and 46 nM | GI50 [35] 14.9 nM and 21.3 nM | GI50 [36] 22.6 nM and 22.2 nM | GI50 [37] 30.2 nM | GI50 [38] 204 nM and 96.4 nM | GI50 [39] 26.5 nM | GI50 [40] 28.3 nM and 35.3 nM | GI50 [41] 30.3 nM | GI50 [42] 21 nM | GI50 [43] 54.7 nM | GI50 [44] < 10 nM and 22.9 nM | GI50 [45] 39.7 nM and 68 nM | GI50 [46] 43.6 nM and 59.3 nM | GI50 [47] 37.3 nM | GI50 [48] 268 nM | GI50 [49] 118 nM | GI50 [50] 160 nM and 96.2 nM | GI50 [51] 31.8 nM | GI50 [52] 211 nM and 68.4 nM | GI50 [53] 30.1 nM | GI50 [54] 188 nM | GI50 [56] 29.1 nM | GI50 [57] 10.3 nM and 28.9 nM | GI50 [58] 18.6 nM | GI50 [59] 14.1 nM and 102 nM | GI50 [60] 356 nM and 175 nM | GI50 [61] 44.7 nM and 72.7 nM | GI50 [62] 149 nM and 25.4 nM | GI50 [63] < 10 nM and 31.2 nM | GI50 [64] 66.5 nM | GI50 [65] 331 nM | GI50 [66] 40.3 nM | GI50 [67] < 10 nM and 18.9 nM | GI50 [68] 17.5 nM
inactive: GI50 [8] 573 nM | GI50 [23] 3090 nM
524 nM: TGI [33]
18.6 nM: TGI [68]
174 nM: TGI [14]
2480 nM and 1200 nM: TGI [1]

FC(F)(F)c1cccc(NC2=NCC(CI)S2)c1 (stereo not given)
64800 nM: TGI [59]
94200 nM: TGI [25]
40200 nM: TGI [42]
59800 nM: TGI [10]
inactive: GI50 [1] > 100000 nM | GI50 [2] > 100000 nM | GI50 [3] 63500 nM | GI50 [4] > 100000 nM | GI50 [5] 61400 nM | GI50 [6] > 100000 nM | GI50 [7] > 100000 nM | GI50 [9] > 100000 nM | GI50 [10] 21400 nM | GI50 [11] > 100000 nM | GI50 [12] 96500 nM | GI50 [13] 40700 nM | GI50 [14] > 100000 nM | GI50 [15] > 100000 nM | GI50 [16] > 100000 nM | GI50 [17] > 100000 nM | GI50 [18] 68700 nM | GI50 [19] 76900 nM | GI50 [21] > 100000 nM | GI50 [22] 80600 nM | GI50 [23] 79000 nM | GI50 [24] > 100000 nM | GI50 [25] 37100 nM | GI50 [27] 92000 nM | GI50 [28] > 100000 nM | GI50 [29] > 100000 nM | GI50 [69] 69900 nM | GI50 [30] > 100000 nM | GI50 [70] 79900 nM | GI50 [31] > 100000 nM | GI50 [71] 46700 nM | GI50 [34] > 100000 nM | GI50 [35] > 100000 nM | GI50 [36] 20100 nM | GI50 [40] 57500 nM | GI50 [42] 20300 nM | GI50 [44] 67000 nM | GI50 [45] > 100000 nM | GI50 [46] 52300 nM | GI50 [48] > 100000 nM | GI50 [49] > 100000 nM | GI50 [50] > 100000 nM | GI50 [51] 73900 nM | GI50 [52] > 100000 nM | GI50 [53] 75400 nM | GI50 [54] > 100000 nM | GI50 [55] > 100000 nM | GI50 [56] > 100000 nM | GI50 [57] > 100000 nM | GI50 [59] 19900 nM | GI50 [60] 54500 nM | GI50 [61] > 100000 nM | GI50 [62] > 100000 nM | GI50 [63] 25100 nM | GI50 [64] 67100 nM | GI50 [65] > 100000 nM | GI50 [66] > 100000 nM | GI50 [67] 42800 nM
47400 nM: TGI [36]
> 100000 nM: TGI [1] | TGI [2] | TGI [3] | TGI [4] | TGI [5] | TGI [6] | TGI [7] | TGI [9] | TGI [11] | TGI [12] | TGI [13] | TGI [14] | TGI [15] | TGI [16] | TGI [17] | TGI [18] | TGI [19] | TGI [21] | TGI [22] | TGI [23] | TGI [24] | TGI [27] | TGI [28] | TGI [29] | TGI [69] | TGI [30] | TGI [70] | TGI [31] | TGI [71] | TGI [34] | TGI [35] | TGI [40] | TGI [44] | TGI [45] | TGI [46] | TGI [48] | TGI [49] | TGI [50] | TGI [51] | TGI [52] | TGI [53] | TGI [54] | TGI [55] | TGI [56] | TGI [57] | TGI [60] | TGI [61] | TGI [62] | TGI [63] | TGI [64] | TGI [65] | TGI [66] | TGI [67]
